# Molecular target: Metabotropic glutamate receptor 1 (Homo sapiens, UniProt Q13255)
# Amino acid sequences for entries named in this document (tags omitted). A change or cut given only in a name is not applied to a line headed by its entry.
# UniProt Q13255: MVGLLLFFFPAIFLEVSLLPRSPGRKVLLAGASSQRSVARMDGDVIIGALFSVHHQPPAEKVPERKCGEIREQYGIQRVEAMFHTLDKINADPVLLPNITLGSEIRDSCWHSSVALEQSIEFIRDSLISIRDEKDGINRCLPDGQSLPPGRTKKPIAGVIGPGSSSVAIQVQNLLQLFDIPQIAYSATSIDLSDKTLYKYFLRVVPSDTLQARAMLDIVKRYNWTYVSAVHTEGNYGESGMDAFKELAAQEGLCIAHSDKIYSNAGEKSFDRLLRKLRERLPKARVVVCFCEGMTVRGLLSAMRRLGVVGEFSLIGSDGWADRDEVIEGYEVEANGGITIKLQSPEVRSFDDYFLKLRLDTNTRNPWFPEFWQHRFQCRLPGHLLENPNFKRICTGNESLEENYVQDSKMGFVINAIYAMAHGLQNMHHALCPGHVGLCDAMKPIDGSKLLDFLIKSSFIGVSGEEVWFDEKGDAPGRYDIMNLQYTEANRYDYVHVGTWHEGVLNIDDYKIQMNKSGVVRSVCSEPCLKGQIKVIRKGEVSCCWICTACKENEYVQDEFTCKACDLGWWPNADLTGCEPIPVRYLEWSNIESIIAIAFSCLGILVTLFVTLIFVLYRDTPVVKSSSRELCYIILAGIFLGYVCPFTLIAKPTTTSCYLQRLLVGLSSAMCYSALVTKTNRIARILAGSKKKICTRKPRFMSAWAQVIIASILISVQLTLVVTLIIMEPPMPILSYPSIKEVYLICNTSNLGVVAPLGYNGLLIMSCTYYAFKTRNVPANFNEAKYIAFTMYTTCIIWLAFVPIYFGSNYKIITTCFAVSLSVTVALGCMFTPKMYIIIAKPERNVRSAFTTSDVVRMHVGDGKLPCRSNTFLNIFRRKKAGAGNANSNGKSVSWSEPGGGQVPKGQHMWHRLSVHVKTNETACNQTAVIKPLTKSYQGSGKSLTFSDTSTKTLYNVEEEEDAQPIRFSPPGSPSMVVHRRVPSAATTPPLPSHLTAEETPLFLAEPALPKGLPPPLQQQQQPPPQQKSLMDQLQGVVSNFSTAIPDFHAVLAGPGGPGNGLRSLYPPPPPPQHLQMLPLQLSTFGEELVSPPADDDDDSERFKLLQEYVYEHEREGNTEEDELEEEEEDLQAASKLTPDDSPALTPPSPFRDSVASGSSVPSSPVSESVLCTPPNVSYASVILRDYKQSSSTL
smiles,measurement,value
"N[C@@]1(C(=O)O)CC[C@H](C(=O)O)C1 [1S, 3R-ACPD]",Ki,3.2 µM
